Literature values, collected in US20040077540A1, “Compositions and methods for modulating physiology of epithelial junctional adhesion molecules for enhanced mucosal delivery of therapeutic compounds” (Nastech Pharmaceutical Company Inc., priority 2002, published 2004).

Tested on: pronase and papain
Details: pH 7.2; cited from earlier work

insulin
time to complete degradation by pronase and papain: 2 to 3 h
